Experimental data taken from PubChem BioAssay AID652134 (The Scripps Research Institute Molecular Screening Center, 2013).
The entries are a selection whose mix differs from that of the whole data set. The source made the active and inactive calls.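 How the source made its calls: active means inhibition above the average of every tested compound plus 3 SD (cut at about 3.8% in these data); inactive means the rest.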

Sequences of proteins named here, by UniProt entry; tags and fusion partners are left off.
UniProt P51843, whole entry: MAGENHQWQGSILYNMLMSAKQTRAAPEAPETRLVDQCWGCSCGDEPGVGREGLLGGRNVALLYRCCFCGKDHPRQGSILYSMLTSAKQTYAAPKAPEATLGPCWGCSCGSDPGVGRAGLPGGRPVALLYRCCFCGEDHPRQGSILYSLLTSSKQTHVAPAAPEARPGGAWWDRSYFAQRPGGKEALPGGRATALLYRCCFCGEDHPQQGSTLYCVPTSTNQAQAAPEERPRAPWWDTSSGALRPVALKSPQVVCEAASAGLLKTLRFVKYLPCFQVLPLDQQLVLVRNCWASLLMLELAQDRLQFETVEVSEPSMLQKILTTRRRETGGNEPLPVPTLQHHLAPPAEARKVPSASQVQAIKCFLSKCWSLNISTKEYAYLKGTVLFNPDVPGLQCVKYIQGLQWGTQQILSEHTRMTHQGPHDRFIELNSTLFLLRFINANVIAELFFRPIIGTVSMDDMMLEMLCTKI

Biological target: Nuclear receptor subfamily 0 group B member 1 (Homo sapiens) (UniProt P51843)
Assay: NR0B1 repressor blockers, StAR reporter readout – cell-based, luminescence, HEK293T, full-length DAX-1, SF-1 activated StAR promoter, confirmation (AID 652134);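 further: 0% = DAX-1 cells with DMSO and 100% = no DAX-1 control cells with DMSO; active compounds raise luminescence by relieving repression of the StAR reporter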
Conditions: HEK293T StAR-promoter luciferase reporter, SF-1/DAX-1 repression; at 6.8 µM; stronger effect = higher value

Row | Structure (SMILES) | inhibition
1 | CN(C)c1ccc(C(=O)NCC2(N3CCCCC3)CCCCC2)cc1 | active: 7.61%
2 | CSc1ccc(C(=O)NCC2(N3CCOCC3)CCCCC2)cc1 | inactive: 3.45%
3 | O=C(NCC1(N2CCCCC2)CCCCC1)c1ccc(=O)[nH]c1 | active: 8.56%
4 | O=C(NCC1(N2CCCCC2)CCCCC1)c1ccc(Cl)nc1 | active: 5.29%
